# Values quoted from earlier work, collected in publication PMC7021761 (Nature Communications, 2020).
# Test system: FPR2 with D2817.32G mutation
# Settings: compared with wild type FPR2; cited from earlier work
row,Substance,effect of D281G mutation on affinity for FPR2
1,fMLF,greatly increase
2,fMLFE,greatly increase
3,fMLFIK,greatly decrease
4,fMLFK,greatly decrease
